This passage reports inhibition results from PubChem BioAssay AID463230 (The Scripps Research Institute Molecular Screening Center, 2010).

By UniProt entry, the sequences of proteins in these tests, tags left out. Where a name states a change or a piece, a line headed by the entry shows the natural chain unless it says otherwise.
UniProt Q13093: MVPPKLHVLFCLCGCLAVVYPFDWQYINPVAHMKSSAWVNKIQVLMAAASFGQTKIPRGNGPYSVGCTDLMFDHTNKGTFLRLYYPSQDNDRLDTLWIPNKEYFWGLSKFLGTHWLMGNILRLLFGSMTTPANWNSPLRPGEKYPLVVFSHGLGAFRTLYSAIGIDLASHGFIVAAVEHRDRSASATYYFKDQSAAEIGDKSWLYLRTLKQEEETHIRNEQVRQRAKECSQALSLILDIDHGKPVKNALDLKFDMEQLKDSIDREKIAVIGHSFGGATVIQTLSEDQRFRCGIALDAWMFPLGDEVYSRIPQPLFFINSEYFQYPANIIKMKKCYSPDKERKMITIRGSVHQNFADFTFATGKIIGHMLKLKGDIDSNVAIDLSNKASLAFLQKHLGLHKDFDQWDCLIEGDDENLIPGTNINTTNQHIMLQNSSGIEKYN

The list shows a part of the results, in another mix than the full data. The source made the active and inactive calls.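 The calls were made as follows: active = mean inhibition of the triplicate above the hit cutoff set for the earlier primary screen (cut at about 25% in these data); inactive = the rest.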

For the test, the target named is Platelet-activating factor acetylhydrolase (Homo sapiens) (UniProt Q13093). The experiment in a line: inhibition of plasma PAF acetylhydrolase – biochemical, fluorescence polarization, human, confirmation (AID 463230).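 Also: 0% = enzyme with DMSO and 100% = wells lacking pPAFAH enzyme.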 The note with it: recombinant pPAFAH, FP-Rh probe fluorescence polarization; at 3.39 µM; hits give high values.
On to `Nc1cccc2c([As](=O)(O)O)cccc12`, for which the inhibition was inactive: 7.06%.
